These results are taken from ChEMBL document CHEMBL1212781, “VIM-19, a metallo-beta-lactamase with increased carbapenemase activity from Escherichia coli and Klebsiella pneumoniae” (2010).

For data set [1], the system named is CO/N=C(\C(=O)N[C@@H]1C(=O)N2C(C(=O)[O-])=C(C[N+]3(C)CCCC3)CS[C@H]12)c1csc(N)n1. Kind of data set: (§1) Hydrolytic activity of beta-lactamase VIM-1 expressed in Escherichia coli TOP10 by spectrophotometry.
For data set [2], the system named is C[C@@H](O)[C@H]1C(=O)N2C(C(=O)O)=C(SCCNC=N)C[C@H]12. The description is as §1.
Data set [3] deals with C[C@@H](O)[C@H]1C(=O)N2C(C(=O)O)=C(S[C@@H]3CN[C@H](C(=O)N(C)C)C3)[C@H](C)[C@H]12. The data set is described as §1.
In data set [4] the test system is C[C@H]1[C@H](NC(=O)/C(=N\OC(C)(C)C(=O)O)c2csc(N)n2)C(=O)N1S(=O)(=O)O. Described as §1.
Data set [5] has as its system CO/N=C(\C(=O)N[C@@H]1C(=O)N2C(C(=O)[O-])=C(C[N+]3(C)CCCC3)CS[C@H]12)c1csc(N)n1. Kind of data set: (§2) Ratio of Kcat to Km for beta-lactamase VIM-1 expressed in Escherichia coli TOP10 by spectrophotometry.
Data set [6] relates to C[C@@H](O)[C@H]1C(=O)N2C(C(=O)O)=C(SCCNC=N)C[C@H]12. The data set is described as §2.
In data set [7] the test system is C[C@H]1[C@H](NC(=O)/C(=N\OC(C)(C)C(=O)O)c2csc(N)n2)C(=O)N1S(=O)(=O)O. The data set is described as §2.
Data set [8] concerns CCN1CCN(C(=O)N[C@@H](C(=O)N[C@@H]2C(=O)N3[C@@H]2SC(C)(C)[C@@H]3C(=O)O)c2ccccc2)C(=O)C1=O. Kind of data set: (§3) Hydrolytic activity of beta-lactamase VIM-19 expressed in Escherichia coli TOP10 by spectrophotometry. In a few lines: (§4)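 Enzyme came from E. coli TOP10 (pVIM-19) grown overnight at 37°C in Trypticase soy broth with amoxicillin (100 μg/ml) and kanamycin (30 μg/ml). The sonicated, cleared extract was purified on Q-Sepharose with a 0–1 M NaCl gradient, in Bis-Tris then cacodylate pH 6.5 buffers.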

Data set [9] concerns CO/N=C(\C(=O)N[C@@H]1C(=O)N2C(C(=O)[O-])=C(C[N+]3(C)CCCC3)CS[C@H]12)c1csc(N)n1. The description is as §3. In a few lines:
as §4

Data set [10] relates to C[C@@H](O)[C@H]1C(=O)N2C(C(=O)O)=C(SCCNC=N)C[C@H]12. The data set is described as §3. Put shortly: as §4
The subject of data set [11] is C[C@@H](O)[C@H]1C(=O)N2C(C(=O)O)=C(S[C@@H]3CN[C@H](C(=O)N(C)C)C3)[C@H](C)[C@H]12. Described as §3. In a few lines:
as §4

Data set [12] relates to CO/N=C(\C(=O)N[C@@H]1C(=O)N2C(C(=O)[O-])=C(C[N+]3(C)CCCC3)CS[C@H]12)c1csc(N)n1. As to the kind of experiment: (§5) Ratio of Kcat to Km for beta-lactamase VIM-19 expressed in Escherichia coli TOP10 by spectrophotometry. Put shortly:
as §4

Data set [13] concerns C[C@@H](O)[C@H]1C(=O)N2C(C(=O)O)=C(SCCNC=N)C[C@H]12. The description is as §5. Put shortly:
as §4

“BlaVIM-1 (Escherichia coli) (from UniProt Q8GDC1)”: the Km in [1] is 145 µM; in [2] it was 1.5 µM; in data set [4], over 1000 µM. For the same substance, the kcat was 15 s⁻¹ in [3] and under 0.01 s⁻¹ in data set [4]. Further, the catalytic efficiency (kcat/Km) in [5] was 4e+06 M⁻¹ s⁻¹; in [6] it was 1e+06 M⁻¹ s⁻¹; in data set [7], under 100 M⁻¹ s⁻¹.

With “Metallo-beta-lactamase VIM-19 (Escherichia coli) (from UniProt D2D9J0)”, the values for the Km in data set [8], in data set [9] and in [10] were 250 µM, 350 µM and 40 µM, respectively. The kcat in data set [9] worked out at 100 s⁻¹; in [10] it was 250 s⁻¹; in [11], 25 s⁻¹. Further, the kcat/Km in data set [12] was determined as 500000 M⁻¹ s⁻¹; in data set [13], 6e+06 M⁻¹ s⁻¹.
